This note sets out measurements from patent US5914236A, “PCT-65 serotonin receptor” (United States of America, priority 1995, dated 1999).

Chains of the proteins cited; added tags and fusions are not shown. Residues count along the entry.
UniProt P32305, 45-448: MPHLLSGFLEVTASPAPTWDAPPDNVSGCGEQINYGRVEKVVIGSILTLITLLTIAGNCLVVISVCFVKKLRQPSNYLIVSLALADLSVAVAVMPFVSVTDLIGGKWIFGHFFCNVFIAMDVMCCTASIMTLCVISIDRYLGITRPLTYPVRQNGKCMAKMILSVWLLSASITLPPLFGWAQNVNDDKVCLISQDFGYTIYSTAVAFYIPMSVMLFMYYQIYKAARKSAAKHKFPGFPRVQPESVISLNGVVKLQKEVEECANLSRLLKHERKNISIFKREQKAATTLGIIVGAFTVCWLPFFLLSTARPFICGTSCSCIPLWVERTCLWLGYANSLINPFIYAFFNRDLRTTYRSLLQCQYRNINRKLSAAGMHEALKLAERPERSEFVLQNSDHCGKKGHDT

The target in assay [1] is T1, PCT-65 receptor (Rattus norvegicus, UniProt P32305).
T1 construct: expressed in transfected cells; host or cells: COS-7 cells (transient, calcium phosphate, pSRα-65)
As to the kind of experiment: Competition binding to PCT-65 receptor (radioligand not specified).

Assay [2] deals with T1, PCT-65 receptor. As to the kind of experiment: [3H]-5-HT competition binding to PCT-65 receptor in membranes of transfected COS-7 cells. The conditions noted are these: competing with [3H]-5-HT (1 nM), COS-7 membranes, 37 °C; geometric mean ± SEM (n=3). As to the method: (§1) This plasmid construct (pSRα-65) was introduced into COS-7 cells by calcium phosphate-mediated transfection.
Specifically, transfected cells were scraped into PBS with 5 mM EDTA, spun, polytroned, spun, suspended in 100 mM Tris, 20 mM MgSO4, 1 mM EDTA, pH7.7. 0.5 ml of this solution containing 10-25 μg protein was added to 0.5 ml of a 2 mM ascorbic acid solution containing the ligand and drugs and incubated for 30 min at 37° C. Filtration was performed on GF/C paper (0.1% PEI solution pre-treatment) with a 10 ml rinse.

Assay [3] has as its target T1, PCT-65 receptor. As to the kind of experiment: [3H]-LSD competition binding to PCT-65 receptor in membranes of transfected COS-7 cells. The conditions noted are these: competing with [3H]-LSD (1.5-2.2 nM), COS-7 membranes, pH 7.4, 37 °C, 60 min; geometric mean ± SEM (n=3).
Source text: as §1

For the compound `NC[C@H](O)c1ccc(O)c(O)c1` [Norepinephrine], the Ki – broadly, a dissociation constant, usually derived from enzyme kinetics or from competition with a known ligand – on PCT-65 receptor [1] (radioligand not given, read-out: Ki (compounds not in Table 1)) is greater than 1300 nM.
On to `COc1ccc2[nH]cc(CCN)c2c1` [5-Methoxytryptamine], for which, on PCT-65 receptor [2], the affinity corresponds to a Ki of 0.57 ± 0.03 nM.
Take `CSc1ccc2c(c1)C(N1CCN(C)CC1)Cc1ccccc1S2` (centres unmarked) [Methiothepin]: the “affinity for PCT-65 (in words)” value on PCT-65 receptor [1] (expressed in mammalian cells (COS-7)) is listed as “relatively high affinity”. The values for the Ki at PCT-65 receptor [3] and at PCT-65 receptor [2] were 1.03 ± 0.16 nM and 0.38 ± 0.18 nM, respectively.
